Here are results for 1 compound from PubChem BioAssay AID795 (NMMLSC, 2007).

Structures are written as SMILES. This is a selection; strong and weak results do not stand in their true shares. Some results for these compounds are left out of this collection, so the calls shown say nothing about other tests. Calls of active or inactive are those of the source.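 Rule for the calls: active = side scatter shift above 30%; inactive = the rest.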

The nature of this assay: inducers of granularity increase in LNCaP cells – cell-based, flow cytometry side scatter, primary screen (AID 795).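 Note: androgen-responsive LNCaP prostate cancer cells in charcoal-stripped serum medium; percent of cells past a gate set so DMSO wells show 10% shift; higher shift means more granular cells and more differentiation.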 To be noted: LNCaP differentiation, 4 d, at 10 µM, stronger effect = higher value. For orientation: A flow cytometer gives signals particle by particle.
As for `O=C(OC1CN2CCC1CC2)C(CO)(c1ccccc1)c1ccccc1` (stereo unspecified), the side scatter shift was inactive: 8%.
